Results on one compound are retold here after ChEMBL document CHEMBL1146604, “Generation of ligand conformations in continuum solvent consistent with protein active site topology: application to thrombin” (J Med Chem, 2003).

This test addresses Prothrombin (Homo sapiens, UniProt P00734). The experiment in a line: Binding affinity towards human thrombin.

The compound `Cc1cc(OCCNc2ccncc2)cc(OS(=O)(=O)c2ccccc2[N+](=O)[O-])c1` came in with an inhibition constant (Ki) of 6 nM.

What is called Ki is a measure of affinity in units of concentration, obtained from inhibition or displacement. Higher therefore signals lower affinity.
